Laboratory results taken from patent US20100017895A1, “Small animal model for hcv replication” (priority 2005, published 2010).

How the values were obtained:
[1] = tested on: HCV replicon expressing firefly luciferase in S6.1-6 cells; assay: Subcutaneous dual reporter model, firefly luciferase of the replicon (Example 12); assay type: in vivo
Experimental: (§1) Co-transfected, replicon containing S6.1-6 cells were implanted subcutaneously into previously irradiated SCID mice on day 1. All mice were imaged for the firefly luciferase bioluminescence following administration of the luciferin substrate. The mice were randomized and divided into treated and vehicle groups. The mice in the treated and vehicle groups had initial mean firefly luciferase bioluminescence within 10% of each other. Mice were treated with IFN or vehicle after imaging. On days 2 and 3 mice were imaged without any substrate to ensure that all luciferin bioluminescence had dissipated. Then, all mice were imaged for the renilla luciferase bioluminescence after administration of coelenterazine substrate. Four to five hours later, all mice were imaged without any substrate to ensure that all the renilla bioluminescence had dissipated. All mice were then imaged for the luciferase bioluminescence after administration of the luciferin substrate. Three naïve mice that had no cells implanted were imaged with coelenterazine to determine the background bioluminescence. The mean background signal was subtracted from the renilla bioluminescence of each of the mice to give the final renilla bioluminescence.

[2] = tested on: HCV replicon in T7-11 cells; assay: Subcutaneous T7-11 replicon cell model in gamma-irradiated SCID mice (bioluminescence, NS5B IFA, RT-PCR, cPARP, Ki67)
[3] = tested on: S6.1-6 cells with control plasmid expressing Renilla luciferase driven by the CMV promoter; assay: Subcutaneous dual reporter model, Renilla luciferase control for cell killing (Example 12); assay type: in vivo, human; conditions: day 2, judged from renilla signal
Experimental: as §1

[4] = tested on: HCV replicon in 5-2 Huh7 cells; assay: Subcutaneous 5-2 Huh7 replicon tumor model in gamma-irradiated SCID mice, treatment on day 42 (Example 10); assay type: in vivo; conditions: treated group
Experimental: Replicon-containing 5-2 Huh7 cells were prepared as described in Example 1 and implanted subcutaneously into SCID mice. The mice were gamma-irradiated at 3 GY for approximately 3.2 minutes on the day of and prior to implantation. Tumors were allowed to grow in the mice. On days 42 and 43, two mice were treated with vehicle and two with IFN-alpha as follows:
Control group: Vehicle (0.1 ml of 100 μμg/ml human serum albumin in HBSS) SC, QD IFN group: 200,000 IU per day per 18 gram mouse IFN-alpha SC
Interferon-alpha injection solution INTRON (Schering) was used. 18 million international units (IU) per vial; 3 million IU per 0.5 ml (NDC 0085-1168-01) Human Serum Albumin at 100 ug/ml (Cat# A5843, Sigma, low endotoxin) was used. In vivo images were taken on days 42 and 43 before each dose and bioluminescence was quantified.

[5] = tested on: HCV replicon in T7-11 cells; assay: Liver model with T7-11 replicon cells in gamma-irradiated SCID mice; assay type: in vivo; conditions: five days after removal of treatment
Excerpt: To evaluate the efficacy of IFN-α in liver, T7-11 cells were directly injected into one lobe of the liver in gamma irradiated SCID mice. IFN-α2B treatment at 15,000 IU/mouse/day was initiated 27 days post inoculation when the signal was stable. Bioluminescence signal decreased more than 10-fold on the day 2 of dosing in the IFN-α2B treated group as compared to vehicle group (FIG. 13d) (P<0.0001). […] To confirm that the luciferase signal was associated with the liver, the locations of tumors were determined by physical examination at the end of study
The antiviral effect of BILN 2061 on HCV replication was also examined. BILN 2061 was administered subcutaneously at 30 mg/kg once daily starting day 25-post tumor cell implantation.
Whole body in vivo imaging.

[6] = tested on: HCV replicon in S6.1-6 cells; assay: Liver model with S6.1-6 replicon cells in gamma-irradiated SCID mice (Example 11); assay type: in vivo; conditions: 200,000 IU per day per 18 gram mouse SC
Experimental: Replicon-containing S6.1-6 cells were prepared as described above in Example 3. The cells were harvested and re-suspended in HBSS at 1×10̂6 cells/0.05 mls/injection. Female C.B17 SCID mice were shaved, gamma-irradiated at 3 GY for approximately 3.2 minutes. Mice were irradiated approximately 4 hours prior to surgery.
An incision was made through the skin and the peritoneal cavity, and then one liver lobe exposed gently. Tumor cells in 0.05 mls of HBSS were injected into the lobe at two sites (1×10̂6 cells/0.05 mls/injection). The surgical incision was closed in the mice were allowed to recover from surgery overnight.
Mice were then randomized and either interferon-alpha or placebo was administered subcutaneously once a day beginning on day 1 and ending on day 7. Each group contained nine mice and the treatments were: […]
In vivo images were taken from the ventral view on days 1 (one day post-surgery), 2, 4 and 7. […] The bioluminescent signal from each mouse was measured from the ventral view by injecting the mouse intraperitoneally with 150 mg/kg of the luciferase substrate luciferin, then placing the mouse and a light tight chamber and capturing the signal with a cooled CCD camera (IVIS system, Xenogen, Alameda, Calif.). A region of interest was created around the liver area of the mouse in the signal was quantified in photons per second.

interferon alpha 2B [IFN-α 2B]
Mean Bioluminescence, Firefly, Day 1 ([1]; Day 1, imaged before treatment (baseline)): 8.63E+06 photons/second
Mean Bioluminescence, Firefly, Day 2 ([1]; Day 2): 5.46E+05 photons/second
mean bioluminescence signal after treatment was discontinued (rebound) ([2]; 15,000 IU/mouse QD 3 days, 4 days after discontinuation): returned to the level that was similar to untreated group
mean bioluminescence signal with ongoing daily dosing ([2]; 15,000 IU/mouse/day QD 14 days): continued to decrease to background
Ki67 staining (cell proliferation), treated group versus control group ([2]; data not shown): no difference
cells with detectable viral NS5B protein by IFA in tumor tissue ([2]; rebound group (IFN QD 3 days), 33 days post implantation): more than 20%
cell killing or toxicity versus the vehicle group [3]: no significant cell killing or toxicity
mean bioluminescent signal prior to dosing ([4]; day 42 before dosing (baseline)): 1.07E+06 photons/sec
mean bioluminescent signal after dosing ([4]; day 43, 200,000 IU per day per 18 gram mouse SC): 1.35E+05 photons/sec
rebound of signal after removal of treatment [5]: only a slight rebound
log drop in mean bioluminescence signal as compared to vehicle ([6]; day 2, one day after first dose): one
mean luciferase signal, log lower than the vehicle group ([6]; day 4, near background): approximately 1.5 log
